Only a part is listed here, and it is no random draw. Active and inactive are the calls of the source. The call rests on the fitted dose curve; in most records, active means well fitted inhibition curve with a large enough effect; inconclusive means small, poorly fitted or top-dose-only effect; inactive means no such curve, though single readings can be large or run the other way. Where a call stands in place of a potency, no number is given.

Protein sequences, listed by entry. Tags and fused reporters are not part of them.
UniProt P39748, whole entry, looked up: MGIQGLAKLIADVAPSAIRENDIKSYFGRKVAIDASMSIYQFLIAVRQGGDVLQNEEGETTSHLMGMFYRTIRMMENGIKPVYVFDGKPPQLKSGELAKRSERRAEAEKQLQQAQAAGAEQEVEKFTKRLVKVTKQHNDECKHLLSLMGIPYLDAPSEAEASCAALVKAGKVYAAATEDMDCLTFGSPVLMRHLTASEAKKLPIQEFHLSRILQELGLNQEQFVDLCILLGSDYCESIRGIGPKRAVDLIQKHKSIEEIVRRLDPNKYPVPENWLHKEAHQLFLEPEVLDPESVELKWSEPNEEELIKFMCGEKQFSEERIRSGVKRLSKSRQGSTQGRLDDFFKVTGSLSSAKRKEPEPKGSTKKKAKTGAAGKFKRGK

In the assay the target is Flap endonuclease 1 (Homo sapiens) (UniProt P39748). The assay can be described thus: qHTS Assay for the Inhibitors of Human Flap endonuclease 1 (FEN1). Further: nearly all actives have a fitted effect of over 65% in size. Particulars: Recombinant FEN1 flap cleavage, fluorescence, 15 min; series mostly up to 114 µM. (qHTS replaces the single test concentration by a dilution series.)
For `O=[N+]([O-])c1cc([N+](=O)[O-])c2nc[nH]c2c1`, the Potency entry is “inactive”.

Regarding `Cc1ccc(NP(=O)(Oc2cccc(C)c2)Oc2cccc(C)c2)nc1`, the Potency result is “inactive”.

As for `c1ccc(-c2nn[nH]n2)c(-c2nn[nH]n2)c1`, the Potency entry is “inactive”. The result for `O=C(NC1CCS(=O)(=O)C1)NP(=S)(Oc1ccccc1)Oc1ccccc1` (stereo not given) reads “inactive”; that for `CCNC(=S)/N=C(\N)N[N+](=O)[O-]`, “inactive”; that for `CCC(=O)N1C2C3N(C(=O)CC)C1C1N(C(=O)CC)C(C(N1C(=O)CC)N3C(=O)CC)N2C(=O)CC`, “inactive”. The result for `O=C(OC1CN2CCC1CC2)c1ccccc1` (stereo not given) reads “inactive”.

For `Cc1ccc(OP(=O)(Nc2ccccn2)Oc2ccc(C)cc2)cc1`, the Potency result was “inactive”.

Consider `CC(=O)NC(SC(=S)N(CC(C)C)CC(C)C)C(Cl)(Cl)Cl` (stereo not given), for which the Potency entry was “inactive”.

Consider `CC(NC(=O)COC(=O)C(O)(c1ccccc1)c1ccccc1)c1ccccc1` (stereo not given), for which the Potency entry is “inactive”.

With `CCOc1ccc(C2=NCC(CBr)S2)cc1` (stereo not given), the Potency result was “inactive”. As for `O=P1(Nc2nc3ccc(Cl)cc3s2)COc2ccccc2O1` (stereo not given), the entry is “inactive”; as for `CCc1cc(O)c([N+](=O)[O-])c(C)c1[N+](=O)[O-]`, “inactive”; as for `C[C@@H]1C=CCP(=O)(Oc2ccccc2)O1` (stereo not given in full), “inactive”.

With `C[C@H]1OP(=O)(Oc2ccccc2)C[C@@H]2O[C@@H]21` (stereo not given in full), the Potency result was “inactive”. The result for `Cc1ccccc1CN(C)C(=O)COC(=O)C(O)(c1ccccc1)c1ccccc1` reads “inactive”; that for `N#C/C(=C\c1ccc(N(CCBr)CCBr)cc1)C(N)=O`, “inactive”.

Consider `CC(=O)Nc1ccc(Oc2c([N+](=O)[O-])cc([N+](=O)[O-])cc2[N+](=O)[O-])cc1`, for which the Potency result is “inactive”.

For `CC(=O)Nc1ccc([As](=O)(O)O)c(O)c1`, the Potency entry was “inactive”. As for `O=P(Nc1nccs1)(c1ccccc1)c1ccccc1`, the entry is “inactive”; as for `CC(C)C(=O)NC(Sc1ccccc1)C(Cl)(Cl)Cl` (stereo not given), “inactive”; as for `c1nnnn1CCn1cnnn1`, “inactive”. The result for `CN(C)C1(CNC(=O)c2ccc(Cl)c(S(N)(=O)=O)c2)CCCCC1` reads “inactive”; that for `COc1ccc(N)c([N+](=O)[O-])c1[N+](=O)[O-]`, “inactive”; that for `C[C@H]1OP(=O)(Oc2ccccc2)[C@H](O)[C@H](O)[C@H]1N=[N+]=[N-]` (stereo not given in full), “inactive”. The result for `O=P(Nc1nc2ccccc2s1)(c1ccccc1)c1ccccc1` reads “inactive”; that for `O=[As](O)(c1ccccc1)c1ccc(O)cc1`, “inactive”; that for `O=[N+]([O-])c1ncn(CCn2cnc([N+](=O)[O-])n2)n1`, “inactive”. In the case of `CC(=O)NC(SC(=S)N(C)C)C(Cl)(Cl)Cl` (stereo not given), the Potency entry was “inactive”. With `O=C(OC1CN2CCC1CC2)c1cccc(Cl)c1` (stereo not given), the Potency entry is “inactive”. As for `Nc1ccc([As](=O)(O)c2ccc([N+](=O)[O-])cc2)cc1`, the entry is “inactive”; as for `C(Cc1nn[nH]n1)Cc1nn[nH]n1`, “inactive”; as for `O=P1(N(CCCl)CCCl)OCCCS1` (stereo not given), “inactive”. As to `Cc1cc(C=O)ccc1N(CCCl)CCCl`, the Potency entry is “inactive”. The result for `O=C(Nc1cc([As](=O)(O)O)ccc1O)c1ccccc1` reads “inactive”; that for `O=P(/N=c1/nc(-c2ccccc2)n(-c2ccccc2)s1)(Nc1ccccc1)Nc1ccccc1`, “inactive”; that for `O=[N+]([O-])c1ncn(CCn2ncnc2[N+](=O)[O-])n1`, “inactive”. As for `CC(C)(C)C(=O)NC(Sc1ccncn1)C(Cl)(Cl)Cl` (stereo not given), the entry is “inactive”. As for `O=C(O)CNc1ccc([As](=O)(O)O)cc1`, the entry is “inactive”; as for `COC(=O)C1(C)COP(=O)(Nc2ccccc2)OC1` (stereo not given), “inactive”; as for `COc1ccc(C2=NCC(CBr)S2)cc1` (stereo not given), “inactive”.

Consider `O=[N+]([O-])c1cc([N+](=O)[O-])c(CCNc2ccccc2)c([N+](=O)[O-])c1`, for which the Potency entry was “inactive”. The result for `CCc1nc2c(n1)c1c(non1O)c1c2no[n+]1[O-]` reads “inactive”; that for `Cc1ccc(NP(=O)(Oc2ccccc2)Oc2ccccc2)nc1`, “inactive”.

In the case of `CC(=O)N1C2C3N(C(C)=O)C1C1N(C(C)=O)C(C(N1C(C)=O)N3C(C)=O)N2C(C)=O`, the Potency entry is “inactive”. On to `O=[N+]([O-])c1cccc2n[nH]nc12`, for which the Potency result is “inactive”. `CCN(/C(=N/P(=O)(N1CCOCC1)N1CCOCC1)N1CCOCC1)c1ccc(OC)cc1`: the Potency result was “inactive”. The result for `Nc1ccc([As](=O)(O)c2ccc(N)cc2)cc1` reads “inactive”. Regarding `CC1CCN(C(=O)Oc2c(Cl)cc(Cl)c3cccnc23)CC1`, the Potency entry is “inactive”. The result for `CN(C)C(=O)OCCc1n(C)cc[n+]1C` reads “inactive”. As for `CC(C)=N/N=C(\N)N[N+](=O)[O-]`, the entry is “inactive”. The result for `COc1cc([N+](=O)[O-])c([N+](=O)[O-])cc1OC` reads “inactive”; that for `Cc1ccc(N/C(=N/P(=O)(N2CCOCC2)N2CCOCC2)N2CCOCC2)cc1`, “inactive”.

`CN(C(=O)Cc1ccc(Cl)c(Cl)c1)[C@H]1CCCC[C@H]1N1CCCC1`: the Potency entry was “inactive”. Turning to `O=[N+]([O-])c1cc2c(cc1[N+](=O)[O-])OCO2`, the Potency result is “inactive”. The result for `NC(=O)c1cc([N+](=O)[O-])cc([N+](=O)[O-])c1N` reads “inactive”.

In the case of `Clc1ccc(Cl)c(NC2=NCC(CBr)S2)c1` (stereo not given), the Potency result was “inactive”.

As to `CN1CCCC(OC(=O)C(c2ccccc2)c2ccccc2)C1` (stereo not given), the Potency entry was “inactive”. As for `Cc1ccc(OP(=O)(Nc2nccs2)Oc2ccc(C)cc2)cc1`, the entry is “inactive”; as for `COc1ccccc1OP(=O)(Nc1ccc(C)cn1)Oc1ccccc1OC`, “inactive”; as for `O=C(NC(Sc1ccncn1)C(Cl)(Cl)Cl)c1ccccc1` (stereo not given), “inactive”. The result for `Oc1ccccc1CNc1ccccn1` reads “inactive”; that for `CC(C)CC(=O)NC(Sc1ccc(Cl)cc1)C(Cl)(Cl)Cl` (stereo not given), “inactive”; that for `Nc1cc(N)c2nonc2c1[N+](=O)[O-]`, “inactive”. As for `O=P(Nc1nc2ccc(Cl)cc2s1)(c1ccccc1)c1ccccc1`, the Potency entry is “inactive”.

Consider `CCCC1OP(N)(=O)OCC1CC` (stereo not given), for which the Potency entry was “inactive”. As to `O=C(O)c1ccccc1[As](=O)(O)O`, the Potency result is “inactive”. The result for `CC(=O)Nc1ccc([As](=O)(O)O)cc1` reads “inactive”; that for `CN(C(=O)Cc1ccc(Cl)c(Cl)c1)[C@H]1CCCC[C@@H]1N1CCCC1`, “inactive”. As for `CCOP(=O)(Nc1ccccc1)OCC`, the entry is “inactive”; as for `Cc1cc(SC(NC(=O)c2ccc(F)cc2)C(Cl)(Cl)Cl)ncn1` (stereo not given), “inactive”. The result for `Nc1c(O)cc([N+](=O)[O-])cc1[N+](=O)[O-]` reads “inactive”.

For the molecule `Nc1cccc2ccc([As](=O)(O)O)cc12`, the Potency entry was “inactive”. As for `COc1cc(C(=O)NCC2(N3CCOCC3)CCCCC2)ccc1OCC(C)C`, the entry is “inactive”; as for `O=[N+]([O-])c1ccc(-c2cc([N+](=O)[O-])c(O)c([N+](=O)[O-])c2)cc1`, “inactive”; as for `C[As](=O)(O)c1cccc(C(=O)O)c1`, “inactive”. The result for `O=[As](O)(c1ccc(O)cc1)c1ccccc1O` reads “inactive”; that for `ClCCN(CCCl)c1ccc(CC2C=CC=C2)cc1`, “inactive”; that for `Cc1ccc(OP(=O)(Nc2ccc([N+](=O)[O-])cn2)Oc2ccc(C)cc2)cc1`, “inactive”. The result for `Cc1ccc2nc3c(c(C)c2c1)CC(C(Cl)Cl)S3` (stereo not given) reads “inactive”; that for `O=Cc1ccc(NCCCl)cc1`, “inactive”; that for `ClCCSc1nnc(-c2cccnc2)o1`, “inactive”. For the molecule `CC(C)c1ccc(OP(=O)(Nc2ccccn2)Oc2ccccc2F)cc1` (stereo not given), the Potency entry is “inactive”.

For the molecule `COC(=O)C1(C)COP(=O)(N2CCCCCC2)OC1` (stereo not given), the Potency result is “inactive”. The result for `O=[N+]([O-])c1cc([N+](=O)[O-])c(-c2ccn[nH]2)s1` reads “inactive”. The result for `O=C(OC1CN2CCC1CC2)c1cccc2[nH]cnc12` (stereo not given) reads “inactive”; that for `CCN(CC)C(=S)SC(NC=O)C(Cl)(Cl)Cl` (stereo not given), “inactive”. As for `CC(C)NC(=O)NP(=O)(Oc1ccccc1)Oc1ccccc1`, the entry is “inactive”. Consider `Cc1c2c(nc3ccccc13)SC(C(Cl)Cl)C2` (stereo not given), for which the Potency result is “inactive”. The result for `Cc1cc(=O)[nH]c(N[N+](=O)[O-])n1` reads “inactive”. The result for `O=C(OC1CN2CCC1CC2)C12CC3CC(CC(C3)C1)C2` (stereo not given) reads “inactive”; that for `O=P1(N(CCCl)CCCl)OCCCN1CCCl` (stereo not given), “inactive”. The result for `COc1cc(I)ccc1[As](=O)(O)O` reads “inactive”. As for `COc1ccc2nc(NP(=O)(c3ccccc3)c3ccccc3)sc2c1`, the Potency result was “inactive”.

On to `O=[N+]([O-])c1cc(Oc2ccc([N+](=O)[O-])cc2C(F)(F)F)cc([N+](=O)[O-])c1`, for which the Potency result was “inactive”. As for `COc1ccc(N/C(=N/P(=O)(N2CCOCC2)N2CCOCC2)N2CCOCC2)cc1`, the entry is “inactive”; as for `COP1(=S)c2c(C)nn(CCC#N)c2N=C(c2ccc(F)cc2)N1C` (stereo not given), “inactive”.

With `O=C(Nc1ccncc1[N+](=O)[O-])c1ccc([N+](=O)[O-])cc1[N+](=O)[O-]`, the Potency result was “inactive”. Consider `O=C(COc1ccccc1)OC1CN2CCC1CC2` (stereo not given), for which the Potency result was “inactive”. As for `O=C(OC1CN2CCC1CC2)c1cccc([N+](=O)[O-])c1` (stereo not given), the entry is “inactive”. The result for `CCOC(=O)c1ccc(NC(=O)C(C)(CCl)SC)cc1` (stereo not given) reads “inactive”. Consider `CCC(C)N(CC(C)C)C(=S)SC(NC(C)=O)C(Cl)(Cl)Cl` (stereo not given), for which the Potency result was “inactive”. Take `CCOP(=O)(Nc1cccc2cccnc12)OCC`: the Potency result is “inactive”. As to `CCOC(=O)Nc1ccc([As](=O)(O)O)c(O)c1`, the Potency result was “inactive”.

`CC1CCNP(=O)(N(CCCl)CCCl)O1` (stereo not given): the Potency result is “inactive”. The result for `Cc1cc(SC(NC(=O)c2ccccc2)C(Cl)(Cl)Cl)nc(C(C)C)n1` (stereo not given) reads “inactive”. As for `CCCCOc1ccc(C(=O)NCC2(N3CCCCC3)CCCCC2)cc1OC`, the entry is “inactive”; as for `CCOC(=O)Nc1cccc([As](=O)(O)O)c1`, “inactive”. As for `Cc1cc(SC(NC=O)C(Cl)(Cl)Cl)ncn1` (stereo not given), the entry is “inactive”; as for `O=P(Nc1ccccn1)(c1cccc2ccccc12)c1cccc2ccccc12`, “inactive”; as for `O=[N+]([O-])c1ccc(Nc2ccc(Oc3ccc([N+](=O)[O-])cc3[N+](=O)[O-])cc2)c([N+](=O)[O-])c1`, “inactive”. Consider `COc1cc([N+](=O)[O-])ccc1[N+](=O)[O-]`, for which the Potency result is “inactive”. Regarding `Cc1ccc(C(=O)OC2CN3CCC2CC3)cc1` (stereo not given), the Potency entry was “inactive”. As for `CC1CCC(C(C)C)C(OP(=O)(Nc2ccccn2)c2ccccc2)C1` (stereo not given), the entry is “inactive”; as for `Cc1nn(-c2ccccc2)c2c1P(=O)(N1CCOCC1)N(C)C(c1ccccc1)=N2` (stereo not given), “inactive”; as for `CN(C)C1(CNC(=O)c2ccc(S(C)(=O)=O)cc2)CCCCC1`, “inactive”. As for `CCCC1OP(=O)(Nc2ccccc2)OCC1CC` (stereo not given), the Potency result was “inactive”. The result for `O=C(/C=C/c1ccccc1)OC1CN2CCC1CC2` (stereo not given) reads “inactive”; that for `O=P1(Nc2ncccn2)COc2ccccc2OC1`, “inactive”.

With `Nc1cccc([As](=O)(O)c2ccccc2)c1`, the Potency result is “inactive”.

These data come from PubChem BioAssay AID588795 (National Center for Advancing Translational Sciences (NCATS), 2011).
